This passage reports IC50 results from US6875743B1, “Cell adhesion inhibitors” (Biogen, Inc., priority 1996, dated 2005).

By UniProt entry, the sequences of proteins in these tests, tags left out. Residues count along the entry.
UniProt P05556, 21-798 limits assumed: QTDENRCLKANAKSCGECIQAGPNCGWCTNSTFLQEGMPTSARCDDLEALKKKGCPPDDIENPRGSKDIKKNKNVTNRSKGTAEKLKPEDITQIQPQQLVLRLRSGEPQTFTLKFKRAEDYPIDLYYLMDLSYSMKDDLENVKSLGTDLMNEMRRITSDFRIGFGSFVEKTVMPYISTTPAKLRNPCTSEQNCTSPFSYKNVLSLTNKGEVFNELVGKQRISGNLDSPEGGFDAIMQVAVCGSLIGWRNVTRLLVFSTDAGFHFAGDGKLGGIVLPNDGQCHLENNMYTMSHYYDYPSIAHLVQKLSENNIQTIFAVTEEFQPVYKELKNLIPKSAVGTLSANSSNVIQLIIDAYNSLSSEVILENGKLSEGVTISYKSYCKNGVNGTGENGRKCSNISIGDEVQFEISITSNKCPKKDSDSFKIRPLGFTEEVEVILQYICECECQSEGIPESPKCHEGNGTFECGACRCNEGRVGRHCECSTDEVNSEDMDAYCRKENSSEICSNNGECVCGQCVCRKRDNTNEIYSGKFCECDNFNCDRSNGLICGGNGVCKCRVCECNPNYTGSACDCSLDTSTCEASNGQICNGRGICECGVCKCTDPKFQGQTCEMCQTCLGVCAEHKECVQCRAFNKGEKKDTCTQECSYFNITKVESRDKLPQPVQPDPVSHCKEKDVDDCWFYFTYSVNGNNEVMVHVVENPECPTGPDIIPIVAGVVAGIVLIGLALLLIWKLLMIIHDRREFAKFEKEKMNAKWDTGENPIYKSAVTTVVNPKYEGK
UniProt P13612, 34-1032 limits assumed: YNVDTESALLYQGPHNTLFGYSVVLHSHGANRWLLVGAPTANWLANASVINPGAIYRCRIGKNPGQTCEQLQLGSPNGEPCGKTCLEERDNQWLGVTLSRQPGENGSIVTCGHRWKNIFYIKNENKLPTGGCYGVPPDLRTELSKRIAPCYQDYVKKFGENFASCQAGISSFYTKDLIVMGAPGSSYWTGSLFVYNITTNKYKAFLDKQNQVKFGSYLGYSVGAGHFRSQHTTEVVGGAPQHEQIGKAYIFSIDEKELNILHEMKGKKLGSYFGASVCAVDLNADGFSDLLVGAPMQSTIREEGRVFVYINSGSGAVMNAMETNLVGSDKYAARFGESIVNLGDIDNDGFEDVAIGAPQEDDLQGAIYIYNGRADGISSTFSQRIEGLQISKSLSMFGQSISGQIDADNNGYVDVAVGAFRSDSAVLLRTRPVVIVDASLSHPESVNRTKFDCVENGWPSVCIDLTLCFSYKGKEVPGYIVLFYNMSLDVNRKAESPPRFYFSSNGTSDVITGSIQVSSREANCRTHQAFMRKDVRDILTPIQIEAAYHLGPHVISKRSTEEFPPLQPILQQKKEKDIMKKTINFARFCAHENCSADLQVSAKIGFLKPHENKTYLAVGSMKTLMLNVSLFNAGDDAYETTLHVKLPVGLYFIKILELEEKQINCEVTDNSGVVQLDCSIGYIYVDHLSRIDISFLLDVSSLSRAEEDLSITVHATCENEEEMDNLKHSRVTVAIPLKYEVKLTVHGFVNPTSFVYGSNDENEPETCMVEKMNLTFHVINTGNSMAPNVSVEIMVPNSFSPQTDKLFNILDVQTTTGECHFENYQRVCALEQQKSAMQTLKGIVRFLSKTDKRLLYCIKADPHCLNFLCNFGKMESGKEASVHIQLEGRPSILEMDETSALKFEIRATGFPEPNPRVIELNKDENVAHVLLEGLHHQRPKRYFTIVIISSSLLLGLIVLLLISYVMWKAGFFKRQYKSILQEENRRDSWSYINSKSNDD

Structures are written as SMILES.

The target of the test is VLA4 (Homo sapiens, UniProt P05556+P13612). Nature of the test: Inhibition of VLA4-dependent adhesion to BSA-CS1. Type of test: cell-based. The settings on record: binding of BCECF-labelled Ramos cells to BSA-CS1 coated wells, 2 mM MnCl2.
A word on the IC50: it is the point on the concentration scale where inhibition reaches its midpoint. Read a low IC50 as greater potency in that assay. `Cc1ccccc1NC(=O)Nc1ccc(CC(=O)NC(CC(C)C)C(=O)N2CN(CC(=O)OCc3ccccc3)C(=O)C[C@H]2C(=O)O)cc1` (stereo partly shown) displayed a 50% inhibitory concentration (IC50) of 0.05 to 10 µM.
As to `CC(C)C[C@H](NC(=O)Cc1ccccc1)C(=O)N[C@@H](CC(=O)O)C(=O)N1CCCCC1C(=O)NCC(=O)O` (stereo partly shown), the IC50 was more than 10 µM.
Then `COc1ccc(CN2CN(C(=O)C(CC(C)C)NC(=O)Cc3ccc(NC(=O)Nc4ccccc4C)cc3)[C@@H](C(=O)O)CC2=O)cc1` (stereo partly shown), with more than 10 µM.
In turn, `COc1ccc(CNC(=O)[C@@H]2CC(=O)N(CC(=O)O)CN2C(=O)C(CC(C)C)NC(=O)Cc2ccc(NC(=O)Nc3ccccc3C)cc2)cc1` (stereo partly shown) yielded an IC50 of 0.05 to 10 µM.
The compound `CC(C)CCC(=O)N[C@@H](CC(=O)O)C(=O)NCC1CCCCC1` displayed a half-inhibitory concentration (IC50) of more than 10 µM.
As to `COc1nc(CC(=O)N[C@@H](CC(C)C)C(=O)N[C@@H](CC(=O)O)C(=O)N[C@H](C(=O)N2CCC[C@H]2C(N)=O)C(C)C)ccc1NC(=O)Nc1ccccc1C`, the 50% inhibitory concentration (IC50) was less than 0.05 µM.
Turning to `COc1ccc(CN2CN(C(=O)C(CC(C)C)NC(=O)Cc3ccc(NC(=O)Nc4ccccc4C)cc3)[C@@H](C(=O)O)CC2=O)cc1OC` (stereo partly shown), the 50% inhibitory concentration (IC50) was more than 10 µM.
